Test results reported in patent US4709079A, “Polyprenyl compounds, process for the production thereof and medicines containing same” (priority 1981, dated 1987).
Where two headings read alike, the source gives them in different places.

Legend:
[1] = tested on: carrageenan-induced edema; assay: carrageenan-induced edema controlling test, sole edema method (Experiments 1 and 2); design: species or system male S.D. rats; conditions: rat, in vivo, po
Description: Effects of controlling carrageenan-induced edema were examined by the sole edema method, see Winter et al.; Pro. Soc. Exp. Biol. Med., 111, 544 (1962), wherein carrageenan was used as an inflaming agent and male S.D. rats weighing 150-180 g were used as the test animals (each group comprised 5 rats).
As the test compounds, Compound C, Indomethacin and Ibuprofen were used. The test compound was dissolved in sesame oil and the solution was administered perorally to the rats 6 hours before the administration of the inflaming agent. The volumes of the hind leg soles were measured 3 hours after the administration of the inflaming agent. Edema rate was calculated according to the following formula (1) and the edema control rate was calculated according to the following formula (2). The median effective dose (ED50) in the carrageenan-induced edema method was calculated from the frequency of cases in which significant edema control was observed (the number of rats having an edema control rate of at least 30%) in each group according to the Litchfield-Wilcoxon method. [formula] wherein a is the volume of the hind leg sole before the edema induction and b is the corresponding value after the edema induction. […]
Carrageenan-induced edema control rates were determined according to formula (2) in the same manner as in Experiment 1 except that each group comprised 8 rats.

[2] = in vivo; conditions: rat, po, peroral, 20% solution in sesame oil
[3] = tested on: gastric membranes; assay: effects on gastric membranes of normal rats (ulceration); format: in vivo, Wistar ST rats; conditions: dose 153 mg/kg, peroral, 4 hours, fasted normal rats
Description: After the rats fasted for 24 hours, 0.5 ml./100 g (body weight)(suspension in 5 wt. % acacia syrup containing 3.6 wt. % Tween 80) of compound C and Indomethacin were administered perorally to Wistar ST rats (7 weeks old). Four hours thereafter, the ulceration conditions in the gastric membranes were examined.

[4] = tested on: cold restraint stress-induced ulcer, gastric membranes; assay: worsening of cold restraint stress-induced ulcer; format: in vivo, Wistar rats; conditions: peroral, two hours after application of stress
Description: Cold restraint stress was applied to Wistar rats (7 weeks old) by a conventional method. 0.5 ml/100 g (body weight) of compound C or Indomethacin (suspended in 5% acacia syrup containing 3.6% Tween 80) was administered perorally to the rats. Two hours after the application of stress, the length of ulcer (ulcer index) in the gastric membranes was measured.

[5] = tested on: adjuvant-induced arthritis; assay: adjuvant-induced arthritis controlling test; design: species or system F-344 rats; conditions: rat, in vivo, po
Description: Arthritis was induced in F-344 rates (6 weeks) (Japanese Charles Liver) according to the method of Winder, C. V., et al; Arthritis Rheum. 12, 472-482 (1969) and the controlling effects were examined. 0.05 ml. of a suspension (6 mg/ml) of Mycobacterium butyricum (Difco) in liquid paraffin was in]ected in the sole of the right leg of each rat to induce arthritis. As test compounds, Compound C and Indomethacin (control) were used. The former was dissolved in sesame oil and the latter was suspended in acacia. The administration of the test compounds was started on the same day as the adjuvant injection. The test compounds were administered perorally every day for 19 days.

COc1ccc2c(c1)c(CC(=O)OCC=C(C)CCC=C(C)CCC=C(C)C)c(C)n2C(=O)c1ccc(Cl)cc1 [Compound C, 1-(p-Chlorobenzoyl)-2-methyl-5-methoxy-3-indolylacetic acid 3,7,11-trimethyl-2,6,10-dodecatrienyl ester]
LD50/ED50 ratio in the carrageenan-induced edema controlling test [1]: 160-230 | LD50 ([2]; female SD rats, read-out: LD50 female): 2000 to 2520 mg/kg | LD50 ([2]; male SD rats, read-out: LD50 male): 1290 to 1860 mg/kg | Ulcer index (mean ± S.E.) [3]: 0.0 ± 0.0 | Ulcer index (Mean ± S.E.), length of ulcer ([4]; dose 30.6 mg/kg): 5.6 ± 2.2 | Ulcer index (Mean ± S.E.), length of ulcer ([4]; dose 153.0 mg/kg): 4.9 ± 1.8 | LD50/ED50 ratio in the adjuvant-induced arthritis test [5]: 410-560
